Assay results as given in patent US9561231B2 (AbbVie Inc., priority 2012, dated 2017).

Assays:
[1] = biological target: T1, second (BD2: amino acids E352-E168) bromodomain of BRD4 (Homo sapiens, UniProt O60885); assay: TR-FRET bromodomain binding assay, BRD4 BD2; conditions: TR-FRET assay protocol (A-G, compound concentration range); Ki calculated from IC50, probe Kd and probe concentration; read-out: TR-FRET Binding Ki: BRD4 (BDII_E352-M457)
T1 construct: protocol
Method: (§1) A time-resolved fluorescence resonance energy transfer (TR-FRET) assay was used to determine the affinities of compounds of the Examples listed in Table 1 for each bromodomain of BRD4. His-tagged first (BD1: amino acids K57-E168) and second (BD2: amino acids E352-E168) bromodomains of BRD4 were expressed and purified. An Alexa647-labeled BET-inhibitor was used as the fluorescent probe in the assay.
(§2) Compound dilution series were prepared in DMSO via an approximately 3-fold serial dilution from one of the following:
(§3) or 5-fold serial dilution from one of the following:
(§4) Assay method A: 2.5 mM-800 nM
(§5) For Assay methods A, C, D, and F: Compounds were then diluted 6:100 in assay buffer (20 mM Sodium Phosphate, pH 6.0, 50 mM NaCl, 1 mM Ethylenediaminetetraacetic acid, 0.01% Triton X-100, 1 mM DL-Dithiothreitol) to yield 3× working solutions. […] of this solution were added to the assay plate to reach a final volume of 18 μL.
(§6) TR-FRET data were normalized to the means of 24 no-compound controls (“high”) and 8 controls containing 1 μM un-labeled probe (“low”). Percent inhibition was plotted as a function of compound concentration and the data were fit with the 4 parameter logistic equation to obtain IC50s. Inhibition constants (Ki) were calculated from the IC50s, probe Kd and probe concentration. Typical Z′ values were between 0.65 and 0.75.

[2] = biological target: T2, first (BD1: amino acids K57-E168) bromodomain of BRD4 (Homo sapiens, UniProt O60885); assay: TR-FRET bromodomain binding assay, BRD4 BD1; conditions: TR-FRET assay protocol (A-G, compound concentration range); Ki calculated from IC50, probe Kd and probe concentration; read-out: TR-FRET Binding Ki: BRD4 (BDI_K57-E168)
T2 construct: His-tagged first (BD1: amino acids K57-E168)
Method: as §1, §2, §3, §4, §5, §6

[3] = system: breast cancer cell line MX-1; assay: MX-1 cell line proliferation assay (3-day); format: cell-based; conditions: MX-1 cells, 72 h incubation, Cell Titer Glo; read-out: Cellular proliferation: EC50
Method: The impact of compounds of the Examples on cancer cell proliferation was determined using the breast cancer cell line MX-1 (ATCC) in a 3-day proliferation assay. MX-1 cells were maintained in RPMI supplemented with 10% FBS at 37° C. and an atmosphere of 5% CO2. For compound testing, MX-1 cells were plated in 96-well black bottom plates at a density of 5000 cells/well in 90 μL of culture media and incubated at 37° overnight to allow cell adhesion and spreading. Compound dilution series were prepared in DMSO via a 3-fold serial dilution from 3 mM to 0.1 μM. The DMSO dilution series were then diluted 1:100 in phosphate buffered saline, and 10 μL of the resulted solution were added to the appropriate wells of the MX-1 cell plate. The final compound concentrations in the wells were 3, 1, 0.3, 0.1, 0.03, 0.01, 0.003, 0.001, 0.0003 and 0.0001 μM.
Luminescence readings from the Cell Titer Glo assay were normalized to the DMSO treated cells and analyzed using the GraphPad Prism software with sigmoidal curve fitting to obtain EC50s.

`COc1cc(=O)n(C)nc1-c1ccccc1Oc1ccccc1` [Example 18, 5-methoxy-2-methyl-6-(2-phenoxyphenyl)pyridazin-3(2H)-one] showed a Ki [1] of 0.523 µM and a Ki [2] of 1.65 µM.

Work on `[2H]C([2H])([2H])C([2H])([2H])Oc1cc(=O)n(C)cc1-c1cc(NS(=O)(=O)CC)ccc1Oc1ccc(F)cc1F` [Example 334, N-[4-(2,4-difluorophenoxy)-3-{4-[(^2H5)ethyloxy]-1-methyl-6-oxo-1,6-dihydropyridin-3-yl}phenyl]ethanesulfonamide] yielded a Ki [1] of 0.00408 µM, a Ki [2] of 0.0276 µM and an EC50 [3] of 0.0152 µM.

Work on `CCOc1cc(=O)n(C)cc1-c1cc(NS(=O)(=O)CC)ccc1Oc1ccc(F)cc1F` [Example 285, N-[4-(2,4-difluorophenoxy)-3-(4-ethoxy-1-methyl-6-oxo-1,6-dihydropyridin-3-yl)phenyl]ethanesulfonamide] yielded a Ki [1] of 0.00103 µM and a Ki [2] of 0.0049 µM.

In the case of `[2H]C([2H])(C)Oc1cc(=O)n(C)cc1-c1cc(NS(=O)(=O)CC)ccc1Oc1ccc(F)cc1F` [Example 333, N-[4-(2,4-difluorophenoxy)-3-{4-[(1,1-^2H2)ethyloxy]-1-methyl-6-oxo-1,6-dihydropyridin-3-yl}phenyl]ethanesulfonamide], the Ki [1] is reported as 0.00183 µM, the Ki [2] is reported as 0.00441 µM and the EC50 [3] is reported as 0.0277 µM.
